This test deals with skin-fascia explants. Description: Scar-in-a-dish (SCAD) ex vivo skin-fascia explant assay, screening of Prestwick chemical library. Format: cell-based, mouse. To be noted: molecules of table 1 named as inhibitors of ECM movement. An excerpt: Post born Day 0 (P0) neonates of C57BL/6J wild type mouse were first sacrificed by decapitation. Then dorsal back skin was isolated to make 2 mm full thickness biopsies (0 2 mm, Stiefel) that included the epidermis, dermis and deep subcutaneous fascia layers. The whole skin tissue explant system is termed as scar-in-a-dish (SCAD) assay (Patent Application no. PLA17A13). The SCAD tissue was maintained in DMEM/F12 cell culture medium (Life Technologies) supplemented with 10% FBS (Life Technologies), 1% non-essential amino acid (Thermo Fisher), 1% Glutamax (Thermo Fisher), 1% penicillin and streptomycin (Thermo Fisher) in a 37° C. incubator supplied with […] and 5% CO2. Medium was changed every other day until day 5 when SCADs were collected and fixed for histology analysis. To be noticed, the excised skin was submerged […] in culture media, which confined the scar-prone fibroblasts to the explant and discouraged their adherence to the tissue culture plate.
The PCL provides an additional advantage as all chemicals are of stable physicochemical properties, show a high range of chemical diversity, and are with known bioavailability and safety data in humans. All these information helps to reduce the probability of screening low-quality hits and save the costs of preliminary screening process. […]

From patent US20220334101A1, “MODULATING EXTRACELLULAR MATRIX MOVEMENT” (Helmholtz Zentrum Muenchen - Deutsches Forschungszentrum …, priority 2019, published 2022) come the findings set out here.

Amyleine hydrochloride: the “phenotype as inhibitor of ECM movement” value is “anti-fibrotic phenotype”.
